# Yeast mating assay B: variants of the scFv Ab-14

The measurements come from Li et al. 2023 (doi:10.1038/s41467-023-39022-2) through the FLAb antibody collection.

Binding partner: SARS-CoV-2 spike HR2 peptide, sequence PDVDLGDISGINAS.

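The starting antibody came from a phage panning campaign against this peptide. The variants were designed computationally from a first round of random CDR variants and then made and measured. Several design methods are mixed in this list. AlphaSeq pools MATa yeast showing the antibodies with MATalpha yeast showing the peptide. Mating (16 h, 30 °C) was followed by selection of diploids and sequencing of their barcodes. A regression on co-assayed BCL2-family reference pairs converts the normalised counts of each replicate to an apparent Kd. The assay was run in six technical replicates.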

Each scFv is VH, the linker GGGGSGGGGSGGGGS, VL, as in the parent Ab-14, and differs from it in the CDRs of the light chain only.
VH: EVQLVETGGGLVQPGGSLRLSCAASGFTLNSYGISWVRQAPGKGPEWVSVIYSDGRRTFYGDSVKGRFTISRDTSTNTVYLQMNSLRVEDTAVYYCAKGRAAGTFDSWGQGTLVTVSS
VL: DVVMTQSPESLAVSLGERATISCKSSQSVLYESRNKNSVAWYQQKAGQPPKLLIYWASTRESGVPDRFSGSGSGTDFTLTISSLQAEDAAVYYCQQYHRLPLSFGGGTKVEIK

Each variant is given by its three light chain CDRs, as the data file delimits them; those of the parent are KSSQSVLYESRNKNSVA, WASTRES, QQYHRLPLS.
Scale: log10 of Kd in nM, estimated from mating counts; low values are strong binders.
A mean of the replicates is given; it leaves out those without a signal.
"nd" marks a missing value. The strain was present, yet no cells mated with the target were sequenced in any replicate, which points to weak or no binding.
The list is sorted by this average, lowest first, undetected variants last.
The parent sequence was in this pool as ten entries: three were never detected, three once, and four in most replicates, with averages from 0.34 to 2.37.

CDR-L1,CDR-L2,CDR-L3,"mean, log10 nM",seen in
KFSQSQLYEDRNKNSVA,NASQRES,QQYHRLPLS,-0.56,6/6
KLPQSVLYESRNKNSVA,GASVRES,QQYHRLPLS,-0.40,6/6
KISQSDLYDSRNKNSVA,DASTRES,QQYHRLPLS,-0.33,6/6
KLSQSVLYESRNKNSVA,EASTRLM,QQYHRLPLS,-0.27,6/6
ALGDVTRMESLKKNSIA,DMSTRES,QQYHRLPLS,-0.22,6/6
KLSQSDGYEMRNKNSVA,EAQTREQ,QQYHRLPLS,-0.19,6/6
KMSQSHLYESRNKNSVA,NASTRES,QQYHRLPLS,-0.13,6/6
KLEQSSLYESRNKNSVA,NASTRLS,QQYHRLPLS,-0.10,6/6
KSSQSVLYESRNKNSVA,DGSTRES,QQYHRLPLS,-0.10,6/6
KLSQSVLYESRNKNSVA,QASTRED,QQYHYLPLS,-0.10,6/6
KQSQSVPYESANKNSVA,DASTRES,QQYHRLPLS,-0.08,6/6
KSSQSVLYEDENKNSVA,HASTRES,QQYHRLPLS,-0.05,6/6
KSEQGVLYQSRNKNSVA,GASTRES,QQYHRLPLS,0.00,6/6
KLSQSVLYEQRNKNSVA,EASTRMS,QQYHRLPLS,0.00,6/6
KSSQSVGVESMNKNSVA,AASTRES,QQYHRLPLS,0.01,6/6
KWEWSQLYESRNKNSVA,NASLRES,QQYHRLPLS,0.05,6/6
KMSQSVLMEHRNKNSVA,EASLRES,QQYHRLPLS,0.06,6/6
KVEQSELYESRNKNSVA,EASTRES,QQYHRLPLS,0.06,6/6
KESQSWIYESRNKNSVA,EASTRES,QQYHRLPLS,0.09,6/6
KLSQSELYESRNKNAVA,NASQRES,QQYHRLPLS,0.10,6/6
KFSQSQGYESRNKNSVA,NASQRES,QQYHRLPLS,0.13,6/6
KSSISNLYESRNENSVA,EASTREQ,QQYHRLPLS,0.16,6/6
KLSASTYRESMHENNVA,DLRARVE,QQYHRLPLS,0.19,6/6
KLSQLTGHNKMVKNNVA,EMVTREN,QQYNRLPLS,0.20,6/6
KLMQEVEYESRLANSVA,NASTRLE,QQYHRLPLS,0.22,6/6
TISAVMNHMTKNKMNVA,NMDMRED,QQYDRLPLS,0.22,6/6
KWSQSVPMGDRNKNSVA,DAHKRES,QQYHRLPLS,0.25,6/6
KSSVSYLYESRNKNSVA,EASTRES,QQYHRLPLM,0.29,6/6
TMDFQDLMWQYDANNIA,GATLSIE,QQYGRLPLT,0.33,6/6
KSSGSELFESRNKNSVA,DASTRES,QQYHRLPLS,0.44,6/6
KLQQSVLYESRNKNSVA,NASTRED,QQYHRLPLS,0.45,6/6
KLMTSHLYESRMANNVA,AASKREE,QQYHRLPLS,0.45,6/6
KFSQSVLYESHNKNSVA,EASTRES,QQYHRLPLS,0.53,6/6
HITYGMYVSGRNHSSIA,QAEERAK,QQYDRLPLI,0.60,6/6
KSSQSVLYESNNKNSVA,WASTRES,QQYYRLPLS,0.74,6/6

Continued, with the values leading:

"mean, log10 nM",seen in,CDR-L1,CDR-L2,CDR-L3
0.76,6/6,KLMGSMLYEQRMKNSVA,NASQRMS,QQYHRLPLS
0.79,6/6,KSQQSVPYESRMKNSVA,NASLRCS,QQYHRLPLS
0.94,6/6,MISQLWNMGQFAINSVA,QASIRNE,QQYDRLPLM
0.95,6/6,MISQSFLIGMKAKNSVA,QTNTREE,QQYDRLPLI
0.96,6/6,KSSGSVLYESRNKNSVA,NASMRES,QQYHRLLLS
1.03,6/6,KSSISYEYESPNKNSVA,EASTRES,QQYHRLPLS
1.04,6/6,KLSQITGHASVSKNNVA,EMATREN,QQYDRLPLS
1.21,6/6,KSSQSVLYESRNSNSVA,EASVRES,QQYHGLPLM
1.22,6/6,KLSQLFYKESRKKNNVA,EMTTRGS,QQYDRLPLS
1.36,6/6,KFSDSVLYESRYKNSVA,SASTRES,QQYHGLPLR
1.38,6/6,TISTSAMYESINKNSVA,ELSTRGS,QQYERLPLS
1.44,6/6,KLSQVTHSEHKQKNSIA,EMVTREK,QQYDRLPLS
1.44,6/6,KVSEFMRGLMQRKDSIA,DNNTRGA,QQYDRLPLS
1.49,6/6,KISQMTRVGSTKGNSIA,EEVTRAK,QQYHRLPLF
1.50,6/6,KFGQSVLGGSYVRNSVA,QQSTREN,QQYDRLPLS
1.52,3/6,KLQQSWEYESRNSNNVA,QASTRSD,QQYHRLPLS
1.52,1/6,KSSQSVLYESRNKNSVA,WASTRSS,QRYHRLPLS
1.58,2/6,TVGQVTMVEEYNKDSVA,QASTRLE,QDYHRLPLS
1.65,5/6,KSSQSWLYERRNKNSVG,GASTRES,QQYHRLPLS
1.69,6/6,MISQVMNTLTRHGNNVA,DLQEREE,QQYDRLPLS
1.73,1/6,RSMQSVLYESRNKNSVA,WASTREP,DQYHRLPLS
1.92,6/6,KISQMVKVGITHNNSIA,EETTRAK,QQYHRLPLA
2.00,3/6,KYSQSVVYDSRFKNSVA,WASTRES,QQYHRLPLF
2.13,6/6,TISTSMRYESSLKNAIA,NAQTREA,QQYHRLPIS
2.13,3/6,KLSTETYGLTGHTSSIA,HDEIRWA,QQYHKLPLI
2.15,1/6,HLSHMTGVESVKHNSVA,ENSTRAN,QQYDRLPLA
2.51,2/6,IIAQLMYWGNKHANSIA,QASQRLN,QQYHHLPLT
2.67,3/6,MISQLYNMGTFAINSVA,QASVRNE,QQYDRLPLM
3.15,3/6,KIGHGLTTESRARNSVA,QTETRVS,QHYHRLPLS
3.34,2/6,TITQMFLGESRNRNSVA,QASTRES,QSYDRLPLS
nd,0/6,KIMQSVLYESRNKNSVA,WASTRES,QQYWREPLS
nd,0/6,KSSQSVLYESRNSNSVA,WASTRES,QQYHRLPES
nd,0/6,KLQQSVPYESRNKNSVA,NASQRES,QQYHRLPLS
nd,0/6,MIHEVMGLVSHKQSSIA,DNSTRED,QQYDRLPLS
nd,0/6,HMMSGSVEQWNIQNAVA,EMSEVYR,QQYVSLPLS
nd,0/6,KSSQSVLYECRNKNSVA,WASTRES,QQYHRLPLS

The last 4 entries again:

CDR-L1,CDR-L2,CDR-L3,"mean, log10 nM",seen in
KLQQSVPYESRNKNSVA,NASQRES,QQYHRLPLS,nd,0/6
MIHEVMGLVSHKQSSIA,DNSTRED,QQYDRLPLS,nd,0/6
HMMSGSVEQWNIQNAVA,EMSEVYR,QQYVSLPLS,nd,0/6
KSSQSVLYECRNKNSVA,WASTRES,QQYHRLPLS,nd,0/6

In the paper, a design with two or fewer of six values counts as a poor binder.
The range of this assay differs from that of the first round, and the authors advise against merging the two.
As a blank, each scFv also met three strains without target: over all light chain designs, 4% of these pairings were detected, typically at 2.64 and seldom below 1.59.